{
  "sequences": {"note": "Chains of the proteins cited; added tags and fusions are not shown.", "UniProt Q96LD8, whole entry": "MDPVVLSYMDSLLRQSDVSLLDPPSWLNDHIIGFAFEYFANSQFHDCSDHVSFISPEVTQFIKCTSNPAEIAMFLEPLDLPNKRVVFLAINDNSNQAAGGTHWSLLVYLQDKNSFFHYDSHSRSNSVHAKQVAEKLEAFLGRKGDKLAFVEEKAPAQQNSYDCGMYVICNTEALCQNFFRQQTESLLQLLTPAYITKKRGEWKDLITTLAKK"},
  "source": "PubChem BioAssay AID2540",
  "about": "(Sanford-Burnham Center for Chemical Genomics, 2010)",
  "note": "This is a selection; strong and weak results do not stand in their true shares. Some salts and complexes are drawn in separate pieces, as the source files them; their charges need not balance. Activity calls are given as the source filed them. Rule as the data show it: active = inhibition above about 50%; inactive = the rest.",
  "data": [
    {"biological_target": "Sentrin-specific protease 8 (Homo sapiens) (UniProt Q96LD8)", "experiment": "blockers of human SENP8 peptidase activity – biochemical, luminescence, primary screen (AID 2540)", "conditions": "purified SENP8, Z-RLRGG-aminoluciferin cleavage, at 10 µM, stronger effect = higher value", "values": [
      {"compound": "CP(=O)(OC12CC3CC(CC(C3)C1)C2)OC12CC3CC(CC(C3)C1)C2", "inhibition": "inactive: 2.45%"},
      {"compound": "CCOC(=O)c1ccc(NP(C)(=O)Oc2ccc(Cl)cc2)cc1", "note": "(stereo unspecified)", "inhibition": "inactive: 4.27%"},
      {"compound": "CP(=O)(Nc1ccc(Cl)cc1)Oc1ccc(F)cc1", "note": "(stereo unspecified)", "inhibition": "inactive: 1.62%"},
      {"compound": "COc1ccccc1OP(C)(=O)Nc1ccccc1Br", "note": "(stereo unspecified)", "inhibition": "inactive: 2.07%"},
      {"compound": "CC(C)(C)c1ccc(OP(C)(=O)O)cc1", "inhibition": "inactive: 4.78%"},
      {"compound": "CN(C)C(=O)c1c([N+](=O)[O-])cc([N+](=O)[O-])cc1[N+](=O)[O-]", "inhibition": "inactive: 4.32%"},
      {"compound": "COc1ccc(OP(C)(=O)Nc2ccc(Br)cc2)cc1", "note": "(stereo unspecified)", "inhibition": "inactive: -9.32%"},
      {"compound": "CCN(CC)CC(O)COC(=O)C(O)(c1ccccc1)C1CCCCC1", "note": "(stereo unspecified)", "inhibition": "inactive: 1.21%"},
      {"compound": "CCc1ccc(OP(C)(=O)Nc2cccnc2)cc1", "note": "(stereo unspecified)", "inhibition": "inactive: 2.48%"},
      {"compound": "CP(=O)(Oc1ccccc1)N1CCOC1=O", "note": "(stereo unspecified)", "inhibition": "inactive: -1.8%"},
      {"compound": "O=C(OCCCN1CCCC1)C(O)(c1ccccc1)C1CCCCC1", "note": "(stereo unspecified)", "inhibition": "inactive: -0.026%"},
      {"compound": "COc1ccccc1OP(C)(=O)Nc1c(C)n(C)n(-c2ccccc2)c1=O", "note": "(stereo unspecified)", "inhibition": "inactive: 0.726%"},
      {"compound": "CP(=O)(Nc1ccc2c(c1)OCCO2)Oc1ccccc1", "note": "(stereo unspecified)", "inhibition": "inactive: -5.55%"},
      {"compound": "Cc1ccccc1NP(C)(=O)Nc1ccccc1C", "inhibition": "inactive: -9.42%"},
      {"compound": "CP(=O)(Nc1ccc(SC(F)(F)F)cc1)Oc1ccc(F)cc1", "note": "(stereo unspecified)", "inhibition": "inactive: 2.71%"},
      {"compound": "CCOP(C)(=S)SCC(=O)NC(C)(CC)C(=O)O", "note": "(stereo unspecified)", "inhibition": "inactive: -1.08%"},
      {"compound": "O=[N+]([O-])c1cc([N+](=O)[O-])c(NCC2CCS(=O)(=O)C2)c([N+](=O)[O-])c1", "note": "(stereo unspecified)", "inhibition": "inactive: -5.74%"},
      {"compound": "COc1ccc(OP(C)(=O)Nc2cccc(Br)c2)cc1", "note": "(stereo unspecified)", "inhibition": "inactive: 3.95%"},
      {"compound": "COc1ccc(NP(C)(=O)Oc2ccccc2OC)cc1", "note": "(stereo unspecified)", "inhibition": "inactive: 3.92%"},
      {"compound": "CN(C)CCOC(=O)C(O)(c1ccccc1)C1CCCCC1", "note": "(stereo unspecified)", "inhibition": "inactive: -1.84%"},
      {"compound": "CCN(CC)CCCOC(=O)C(O)(c1ccccc1)C1CCCCC1", "note": "(stereo unspecified)", "inhibition": "inactive: -0.385%"},
      {"compound": "O=[N+]([O-])c1cc([N+](=O)[O-])c(OC2CCCCC2O)c([N+](=O)[O-])c1", "note": "(stereo unspecified)", "inhibition": "inactive: -0.205%"},
      {"compound": "CCCCCOc1ccc(NP(C)(=O)Oc2ccc(Cl)cc2Cl)cc1", "note": "(stereo unspecified)", "inhibition": "inactive: 0.791%"},
      {"compound": "CP(=O)(Nc1ccccc1)Oc1ccc(F)cc1", "note": "(stereo unspecified)", "inhibition": "inactive: -8.3%"},
      {"compound": "COc1ccc(OP(C)(=O)Nc2ccc(SC(F)(F)F)cc2)cc1", "note": "(stereo unspecified)", "inhibition": "inactive: 5.34%"},
      {"compound": "CCOC(=O)c1ccc(NP(C)(=O)Oc2ccc(F)cc2)cc1", "note": "(stereo unspecified)", "inhibition": "inactive: -1.98%"},
      {"compound": "O=C(OCCN1CCN(CCOCc2ccccc2)CC1)C(O)(c1ccccc1)c1ccccc1", "inhibition": "inactive: -5.61%"},
      {"compound": "O=C(OC1CN2CCC1CC2)c1ccc([N+](=O)[O-])cc1", "note": "(stereo unspecified)", "inhibition": "inactive: -5.99%"},
      {"compound": "COc1ccc2c(c1O)-c1c(O)c(OC)cc3c1[C@H](C2)[N+](C)(C)CC3.O=[N+]([O-])c1cc([N+](=O)[O-])c([O-])c([N+](=O)[O-])c1[O-]", "inhibition": "inactive: -2.02%"},
      {"compound": "CC(C)c1ccc(OP(C)(=O)Nc2ccc(SC(F)(F)F)cc2)cc1", "note": "(stereo unspecified)", "inhibition": "inactive: -12.8%"},
      {"compound": "CP(=O)(Nc1ccccc1F)Oc1ccccc1", "note": "(stereo unspecified)", "inhibition": "inactive: -5.12%"}
    ]}
  ]
}
